From publication PMC4275256 (PLoS ONE, 2014) come the findings set out here.

This series relates to O=C(O)O. The series can be described thus: cells, lysate or membranes. The settings on record: pH 8, 50 mM NaCl, 24 °C, labelled compound, corrected for respiratory Ci.

As a reminder, the Km is the substrate concentration at which the rate is half of its maximum. “SbtA7001 (SbtA1) (Cyanobium sp. PCC 7001)”: the Michaelis-Menten constant (Km) is on record as 189 µM.
